The subject of this assay is NanoLuc luciferase (engineered Oplophorus gracilirostris luciferase). The experiment in a line: Confirmatory Nanoluciferase (NLuc) qHTS assay for identification of artifact compounds. Also: % of control where 0% means no effect. Conditions: secreted NLuc in S16 cell medium, luminescence, 5 min; at 39 µM (top of the series). From the text:
PI: Alexander Tropsha Ph.D. UNC Eshelman School of Pharmacy University of North Carolina, Chapel Hill, North Carolina Hits from high-throughput screening (HTS) of chemical libraries are often false positives due to their interference with the assay detection technology. In response to this problem, we generated the largest publicly available library of chemical liabilities and developed a free webtool to predict HTS artifacts, both of which are described herein. More specifically, we generated, curated, and integrated HTS datasets for thiol reactivity, redox activity, and luciferase (firefly and nano) activity. Using these curated datasets, we developed and validated several Quantitative Structure-Interference Relationship (QSIR) models to predict nuisance behavior. […]
PROTOCOL TABLE SEQUENCE No. (e.g., 1, 2, 3, etc.); PARAMETER (e.g., Cells, Incubation, Reagent, etc.); VALUE; DESCRIPTION. […] 6; Detection; Luminescence, ViewLux microplate reader. […] 2 uL of NLuc substrate (1:100 in Nano-Glo luciferase buffer; Nano-Glo luminescence assay, Promega, Madison, WI) was dispensed for a final assay volume of 4 uL. […] Samples were read for luminescence on a ViewLux CCD imager (PerkinElmer). […]

The entries are a selection whose mix differs from that of the whole data set. Inconclusive results are not listed. Calls of active or inactive are those of the source. Calls follow the shape of the dose curve; as a rule, active = well fitted curve in the direction sought with a large enough effect; inconclusive = small, poorly fitted or top-dose-only effect, or another doubt; inactive = no such curve, though single readings can be large or run the other way.

For `[NH4+].[O-][Cl+3]([O-])([O-])[O-]`, the activity change, negative = inhibition is inactive: 6.24%.

These data come from PubChem BioAssay AID1845224 (National Center for Advancing Translational Sciences (NCATS), 2023).
